{
  "sequences": {"note": "Protein sequences, listed by entry. Tags and fused reporters are not part of them. Chains listed by the source or under a name are the forms on record and can include a tag or linker.", "UniProt P16109, with tags, fused parts or gaps limits assumed": "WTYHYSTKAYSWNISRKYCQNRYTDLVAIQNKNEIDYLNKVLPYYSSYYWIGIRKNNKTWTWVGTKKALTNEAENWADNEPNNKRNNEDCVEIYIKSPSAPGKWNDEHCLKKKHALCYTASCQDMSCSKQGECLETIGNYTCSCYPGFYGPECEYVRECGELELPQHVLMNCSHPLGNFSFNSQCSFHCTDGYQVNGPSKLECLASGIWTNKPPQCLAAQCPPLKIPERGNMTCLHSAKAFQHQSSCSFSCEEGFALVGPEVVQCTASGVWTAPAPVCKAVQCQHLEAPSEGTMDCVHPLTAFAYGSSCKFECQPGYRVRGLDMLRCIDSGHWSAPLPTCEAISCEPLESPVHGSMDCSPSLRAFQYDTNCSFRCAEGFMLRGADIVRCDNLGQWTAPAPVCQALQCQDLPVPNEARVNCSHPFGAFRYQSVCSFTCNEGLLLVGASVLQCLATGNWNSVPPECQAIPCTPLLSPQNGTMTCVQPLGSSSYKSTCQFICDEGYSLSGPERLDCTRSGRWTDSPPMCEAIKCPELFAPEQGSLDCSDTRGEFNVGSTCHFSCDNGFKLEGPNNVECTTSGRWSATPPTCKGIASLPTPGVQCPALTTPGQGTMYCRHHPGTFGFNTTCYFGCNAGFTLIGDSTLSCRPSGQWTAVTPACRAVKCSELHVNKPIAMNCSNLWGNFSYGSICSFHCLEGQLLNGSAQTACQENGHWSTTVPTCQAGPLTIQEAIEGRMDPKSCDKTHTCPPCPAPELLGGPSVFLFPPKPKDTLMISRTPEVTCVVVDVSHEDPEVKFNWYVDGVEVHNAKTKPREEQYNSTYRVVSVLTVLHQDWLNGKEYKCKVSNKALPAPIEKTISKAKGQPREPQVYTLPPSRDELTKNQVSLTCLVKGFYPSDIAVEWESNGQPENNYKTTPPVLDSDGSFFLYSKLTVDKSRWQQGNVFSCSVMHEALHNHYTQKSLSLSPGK"},
  "source": "patent US20060217294A1",
  "about": "“Compounds binding to p-selectin” (YAMANOUCHI EUROPE B.V., priority 2002, published 2006)",
  "target": "T1, human P-selectin (Homo sapiens, UniProt P16109)",
  "T1 construct": "IgG-Fc (fusion partner); purchased R&D Systems Europe Ltd., Abingdon, United Kingdom",
  "assay": "Competition assay with TM11-PO (competition ELISA)",
  "format": "binding",
  "conditions": "Table 2, average of at least 3 experiments at 8 concentrations, read-out: IC50 for human P-selectin as determined by competition Elisa",
  "procedure": "Compounds according to the invention, as prepared in examples 1, 2 and 3 and some reference peptide compounds were assayed for its ability to inhibit TM11-PO binding to human P-selectin. […] For competition studies, a 96 wells microtiter plate (high binding, flat bottom, Costar, Corning, U.S.A.) was coated overnight at 4° C. with 10 μg/ml goat anti-human IgG (Fc specific) (Sigma-Aldrich, Zwijndrecht, the Netherlands) in coating buffer (50 mM NaHCO3, pH 9.6). Subsequently, wells were washed with assay buffer and incubated for 1 hour at 37° C. with blocking buffer (3% BSA in assay buffer). After washing with assay buffer, the wells were incubated for 2 hours at 37° C. with the human P-selectin IgG-Fc chimera (R&D Systems Europe Ltd., Abingdon, United Kingdom) (0.3 μg/ml). Subsequently, wells were washed with assay buffer and incubated for 1 hour at 4° C. with the TM11-PO complex. The wells were washed six times with washing buffer (0.1% Tween 20 in assay buffer). […] (TMB)/hydrogen peroxide (H2O2) (Pierce, Rochford, U.S.A.) was added and wells were incubated at room temperature for 15 minutes. The reaction was halted by addition of 2 M H2SO4 and the absorbance was measured at 450 nm.",
  "data": [
    {"smiles": "CC(=O)N[C@@H](Cc1c[nH]c2ccccc12)C(=O)N[C@H](C(=O)N[C@@H](CC(=O)O)C(=O)N[C@H](C(=O)O)C(C)C)C(C)C", "note": "[Peptide 11, Ac-WVDV]", "values": [
      {"measurement": "IC50", "result": 27, "unit": "µM"}
    ]}
  ]
}
